Test results from patent US7429578B2, “Tricyclic inhibitors of poly(ADP-ribose) polymerases” (Agouron Pharmaceuticals, Inc., priority 1999, dated 2008).

Chains of the proteins cited; added tags and fusions are not shown.
UniProt P09874, whole entry: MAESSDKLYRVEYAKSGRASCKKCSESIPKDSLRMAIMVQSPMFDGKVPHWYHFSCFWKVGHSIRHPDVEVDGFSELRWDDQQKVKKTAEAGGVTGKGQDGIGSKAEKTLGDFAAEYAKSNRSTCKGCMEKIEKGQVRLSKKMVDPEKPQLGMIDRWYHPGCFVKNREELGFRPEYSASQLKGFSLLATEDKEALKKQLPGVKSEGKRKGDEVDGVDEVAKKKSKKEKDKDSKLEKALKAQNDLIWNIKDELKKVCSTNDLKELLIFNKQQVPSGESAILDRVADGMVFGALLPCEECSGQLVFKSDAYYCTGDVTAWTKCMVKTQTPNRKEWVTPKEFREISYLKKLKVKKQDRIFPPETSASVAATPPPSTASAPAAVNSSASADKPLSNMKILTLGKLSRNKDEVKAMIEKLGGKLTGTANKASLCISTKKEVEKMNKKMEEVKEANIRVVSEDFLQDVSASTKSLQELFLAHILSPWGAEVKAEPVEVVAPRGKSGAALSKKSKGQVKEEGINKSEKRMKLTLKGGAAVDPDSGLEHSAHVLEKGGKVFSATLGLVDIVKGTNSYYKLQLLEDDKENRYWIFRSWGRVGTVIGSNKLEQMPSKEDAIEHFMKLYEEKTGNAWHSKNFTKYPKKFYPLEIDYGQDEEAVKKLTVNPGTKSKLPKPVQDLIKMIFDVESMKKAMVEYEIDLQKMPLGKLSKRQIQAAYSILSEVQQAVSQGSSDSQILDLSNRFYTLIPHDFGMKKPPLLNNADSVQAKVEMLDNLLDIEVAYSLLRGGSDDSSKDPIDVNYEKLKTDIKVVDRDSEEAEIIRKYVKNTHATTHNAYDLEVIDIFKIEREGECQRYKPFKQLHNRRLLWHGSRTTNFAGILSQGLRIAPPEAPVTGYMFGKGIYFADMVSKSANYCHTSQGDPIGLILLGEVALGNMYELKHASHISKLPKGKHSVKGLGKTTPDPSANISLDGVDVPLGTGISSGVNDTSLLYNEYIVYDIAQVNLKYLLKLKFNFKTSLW

Target: purified PARP protein (Homo sapiens, UniProt P09874)
Test: PARP enzyme inhibition assay
Format: biochemical
Settings: read-out: Inhibition Constant Ki

Compound: S=C1NCCc2c(-c3ccccc3)[nH]c3cccc1c23 [Compound 24, 2-Phenyl-1,3,4,5-tetrahydro-azepino[5,4,3-cd]indole-6-thione]
- Ki: 57 nM
